Earlier results as cited in patent publication US20030078190A1 (priority 2001, published 2003).
Where two headings read alike, the source gives them in different places.

Biological target: AT1 receptor (Homo sapiens, UniProt P30556)
Settings: cited from earlier work

Compound: CCCCc1nc(Cl)c(CO)n1Cc1ccc(-c2ccccc2-c2nn[nH]n2)cc1 [losartan]
- Affinity for the AT1 receptor: lower affinity
- Affinity for the AT1 receptor (listed as Losartan): weak binding properties
